The data set can be described thus: Adsorption of aromatic substances on CTS crystalline anhydrate (Example C-3). The format is physicochemical. The settings on record: aromatic substance adsorbed per 1 g of CTS crystalline anhydrate. How it is done: The following explains the experimental method in detail. […] The amount of the adsorbed aromatic substances was calculated by measuring the weight of the resulting powders and subtracting their starting powder weight (4 g).

For 1-Butanol, the “Amount of Adsorbed Substance” value stood at 0.22 g.

The values are drawn from patent US20050013914A1, “Method of sustaining aroma and use thereof” (priority 2001, published 2005).
